Only a part is listed here, and it is no random draw. Active and inactive are the calls of the source.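 Rule for the calls: active = inhibition above about 50% at the single test dose (limit read from the data); inactive = the rest.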

By UniProt entry, the sequences of proteins in these tests, tags left out. Where a name states a change or a piece, a line headed by the entry shows the natural chain unless it says otherwise.
UniProt Q9BQF6: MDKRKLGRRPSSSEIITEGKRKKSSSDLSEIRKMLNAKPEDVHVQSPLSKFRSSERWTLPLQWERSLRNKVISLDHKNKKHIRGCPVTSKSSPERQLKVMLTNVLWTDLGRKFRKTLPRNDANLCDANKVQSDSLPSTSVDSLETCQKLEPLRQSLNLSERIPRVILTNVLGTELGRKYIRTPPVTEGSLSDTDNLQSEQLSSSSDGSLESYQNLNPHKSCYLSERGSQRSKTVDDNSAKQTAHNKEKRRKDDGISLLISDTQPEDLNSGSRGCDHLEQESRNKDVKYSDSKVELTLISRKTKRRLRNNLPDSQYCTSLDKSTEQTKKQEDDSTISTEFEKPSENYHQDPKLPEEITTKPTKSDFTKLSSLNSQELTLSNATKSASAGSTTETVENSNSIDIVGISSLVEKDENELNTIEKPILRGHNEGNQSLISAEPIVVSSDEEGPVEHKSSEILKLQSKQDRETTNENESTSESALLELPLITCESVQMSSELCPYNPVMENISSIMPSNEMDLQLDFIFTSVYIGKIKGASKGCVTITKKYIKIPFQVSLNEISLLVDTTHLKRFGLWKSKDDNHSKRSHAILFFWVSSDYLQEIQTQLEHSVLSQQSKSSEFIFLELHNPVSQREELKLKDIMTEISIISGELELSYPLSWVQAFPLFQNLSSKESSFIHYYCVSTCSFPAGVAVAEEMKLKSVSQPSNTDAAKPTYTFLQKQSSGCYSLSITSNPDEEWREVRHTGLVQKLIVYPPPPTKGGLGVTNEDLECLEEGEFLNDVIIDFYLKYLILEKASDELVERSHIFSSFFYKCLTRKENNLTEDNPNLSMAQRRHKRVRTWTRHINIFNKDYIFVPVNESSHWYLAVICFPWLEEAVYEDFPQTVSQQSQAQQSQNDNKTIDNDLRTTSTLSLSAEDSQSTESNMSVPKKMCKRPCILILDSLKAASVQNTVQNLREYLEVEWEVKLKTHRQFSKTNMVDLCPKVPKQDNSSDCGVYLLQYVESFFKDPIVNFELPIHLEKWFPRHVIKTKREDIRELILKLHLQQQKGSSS

The inhibition is the drop in the measured response relative to a control, in per cent.

For this assay, the target named is Sentrin-specific protease 7 (Homo sapiens) (UniProt Q9BQF6). As to the kind of experiment: SENP7 protease inhibitors, primary screen, biochemical, luminescence, uHTS (AID 434973).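 Note: plate controls were DMSO with enzyme for no effect and no enzyme buffer wells for full effect.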 As to conditions: recombinant SENP7, Z-RLRGG-aminoluciferin luminescence, 40 min; at 5 µM; active compounds read high.
As to `CN(C)C(=O)OCCc1n(C)cc[n+]1C`, the inhibition is inactive: 2.97%. As for `CCN(/C(=N/P(=O)(N1CCOCC1)N1CCOCC1)N1CCOCC1)c1ccc(OC)cc1`, the inhibition is inactive: 3.25%. For the compound `Nc1ccc([As](=O)(O)c2ccc(N)cc2)cc1`, the inhibition is inactive: 2.16%. As for `C[N+]1=C2C=CC=CC=C2SC12C([N+](=O)[O-])=CC([N+](=O)[O-])=C[C-]2[N+](=O)[O-]` (centres undefined), the figure is inactive: -2.26%. Regarding `Cc1ccc(NP(=O)(Oc2ccccc2)Oc2ccccc2)nc1`, the inhibition is inactive: -6.89%.

For `O=[N+]([O-])c1cc([N+](=O)[O-])c(CCNc2ccccc2)c([N+](=O)[O-])c1`, the inhibition is inactive: 6.26%. As to `CCc1nc2c(n1)c1c(non1O)c1c2no[n+]1[O-]`, the inhibition was inactive: 15.6%. As for `CC(=O)N1C2C3N(C(C)=O)C1C1N(C(C)=O)C(C(N1C(C)=O)N3C(C)=O)N2C(C)=O`, the figure is inactive: 3.57%. As for `O=[N+]([O-])c1cccc2n[nH]nc12`, the inhibition is inactive: -4.43%. For the compound `COc1ccc(C2=NCC(CBr)S2)cc1` (centres undefined), the inhibition is inactive: 2.99%.

As for `c1nnnn1CCn1cnnn1`, the inhibition is inactive: -9.66%. Then `O=P(Nc1nccs1)(c1ccccc1)c1ccccc1`, with inactive: 3.24%; and `CC(C)C(=O)NC(Sc1ccccc1)C(Cl)(Cl)Cl` (centres undefined), with inactive: -3.1%. As for `O=C(OC1CN2CCC1CC2)c1cccc(Cl)c1` (centres undefined), the figure is inactive: 1.75%.

As for `Nc1ccc([As](=O)(O)c2ccc([N+](=O)[O-])cc2)cc1`, the inhibition is inactive: 5.76%. In the case of `C(Cc1nn[nH]n1)Cc1nn[nH]n1`, the inhibition was inactive: -1.76%. As for `O=[As](O)(c1ccccc1)c1ccc(O)cc1`, the figure is inactive: -6.53%; as for `O=[N+]([O-])c1ncn(CCn2cnc([N+](=O)[O-])n2)n1`, inactive: 8.71%; as for `O=P(Nc1nc2ccccc2s1)(c1ccccc1)c1ccccc1`, inactive: 3.36%.

As for `C[C@H]1OP(=O)(Oc2ccccc2)[C@H](O)[C@H](O)[C@H]1N=[N+]=[N-]` (some centres undefined), the inhibition is inactive: -15.2%. Take `CN(C)C1(CNC(=O)c2ccc(Cl)c(S(N)(=O)=O)c2)CCCCC1`: the inhibition is inactive: 6.83%.

Regarding `O=P(Nc1ccccn1)(c1ccc(Br)cc1)c1ccc(Br)cc1`, the inhibition was inactive: -1.2%. As for `Cc1ccccc1OP(=O)(Nc1ccccn1)Oc1ccccc1C`, the figure is inactive: 2.19%; as for `CC(NC(=O)COC(=O)C(O)(c1ccccc1)c1ccccc1)c1ccccc1` (centres undefined), inactive: -8.48%. Take `CN(C)C(=O)Oc1noc2ccccc12`: the inhibition is inactive: -1.89%. With `O=C(OC1CN2CCC1CC2)c1ccccc1` (centres undefined), the inhibition is inactive: -4.76%. In the case of `CCC(=O)N1C2C3N(C(=O)CC)C1C1N(C(=O)CC)C(C(N1C(=O)CC)N3C(=O)CC)N2C(=O)CC`, the inhibition is inactive: 2.37%. Then `COC(=O)c1cc2c(s1)N=C(c1ccccc1)N(C)P2(=O)N1CCOCC1` (centres undefined), with inactive: 1.16%; and `Cc1ccc(OP(=O)(Nc2ccccn2)Oc2ccc(C)cc2)cc1`, with inactive: -8.2%; and `CC(=O)NC(SC(=S)N(CC(C)C)CC(C)C)C(Cl)(Cl)Cl` (centres undefined), with inactive: -3.08%.

As for `c1ccc(-c2nn[nH]n2)c(-c2nn[nH]n2)c1`, the inhibition is inactive: 2.71%. As for `CCOC(=O)NC(Sc1ccccc1)C(Cl)(Cl)Cl` (centres undefined), the figure is inactive: 3.66%. On to `Cc1ccc(NP(=O)(Oc2cccc(C)c2)Oc2cccc(C)c2)nc1`, for which the inhibition was inactive: -11.6%. For `O=C(NC1CCS(=O)(=O)C1)NP(=S)(Oc1ccccc1)Oc1ccccc1` (centres undefined), the inhibition was inactive: 6.42%.

For the compound `CCNC(=S)/N=C(\N)N[N+](=O)[O-]`, the inhibition was inactive: -1.77%. With `CC(=O)Nc1ccc([As](=O)(O)O)c(O)c1`, the inhibition is inactive: -4.05%.

Turning to `CC(=O)Nc1ccc(Oc2c([N+](=O)[O-])cc([N+](=O)[O-])cc2[N+](=O)[O-])cc1`, the inhibition was inactive: -5.58%. Turning to `Cc1ccccc1CN(C)C(=O)COC(=O)C(O)(c1ccccc1)c1ccccc1`, the inhibition is inactive: -11.9%. Consider `C[C@@H]1C=CCP(=O)(Oc2ccccc2)O1` (some centres undefined), for which the inhibition is inactive: -11.7%. For `C[C@H]1OP(=O)(Oc2ccccc2)C[C@@H]2O[C@@H]21` (some centres undefined), the inhibition was inactive: -4.48%. On to `CC(=O)c1ccc(N2CC2c2ccncc2)cc1` (centres undefined), for which the inhibition was inactive: -4.08%. As to `CC(C)(C)C(=O)NC(Sc1ccccc1)C(Cl)(Cl)Cl` (centres undefined), the inhibition was inactive: 3.33%. For `O=P1(Nc2nc3ccc(Cl)cc3s2)COc2ccccc2O1` (centres undefined), the inhibition was inactive: 4.5%. For the compound `CCOc1ccc(C2=NCC(CBr)S2)cc1` (centres undefined), the inhibition was inactive: 2.37%.

The values are drawn from PubChem BioAssay AID434973 (Sanford-Burnham Center for Chemical Genomics, 2010).
